# Literature values as cited in patent US5377676A, “Method for determining the biodistribution of substances using fluorescence spectroscopy” (Cedars-Sinai Medical Center, priority 1993, dated 1995).
# Settings: in vivo; cited from earlier work
substance,measurement,value
hematoporphyrin derivative [HPD],Skin accumulation / skin photosensitivity,tendency to accumulate in the skin and cause a prolonged skin photosensitivity
